For the data set the following is noted: 10 and 100 ng/ml gel, protocols A and B. The protocol: Treatments (Protocols A and B): Mouse recombinant VEGF164 (the murine equivalent of human VEGF165) was dissolved at a concentration of 10 and 100 ng/ml gel. Control animals received applications of gel only. Some animals were injected on day 19 s.c. with 10 mg progesterone receptor antagonist RU486, a protocol which induces in 24 h preterm delivery in 80% of animals.

Take VEGF: the “fetal or placental weights among treatment for a given gestational age” value is given as “no differences”.

The record behind these values is patent publication US6946442B2, “Method of hastening cervical ripening” (priority 1994, dated 2005).
